From ChEMBL document CHEMBL3425427, “Pyrido[4,3-e][1,2,4]triazolo[4,3-a]pyrazines as Selective, Brain Penetrant Phosphodiesterase 2 (PDE2) Inhibitors” (ACS Med Chem Lett, 2015)
pIC50: −log10 of the molar value.

Biological target: T1, cAMP and cAMP-inhibited cGMP 3',5'-cyclic phosphodiesterase 10A (Rattus norvegicus, UniProt Q9QYJ6)
T1 sequence (Q9QYJ6 whole entry): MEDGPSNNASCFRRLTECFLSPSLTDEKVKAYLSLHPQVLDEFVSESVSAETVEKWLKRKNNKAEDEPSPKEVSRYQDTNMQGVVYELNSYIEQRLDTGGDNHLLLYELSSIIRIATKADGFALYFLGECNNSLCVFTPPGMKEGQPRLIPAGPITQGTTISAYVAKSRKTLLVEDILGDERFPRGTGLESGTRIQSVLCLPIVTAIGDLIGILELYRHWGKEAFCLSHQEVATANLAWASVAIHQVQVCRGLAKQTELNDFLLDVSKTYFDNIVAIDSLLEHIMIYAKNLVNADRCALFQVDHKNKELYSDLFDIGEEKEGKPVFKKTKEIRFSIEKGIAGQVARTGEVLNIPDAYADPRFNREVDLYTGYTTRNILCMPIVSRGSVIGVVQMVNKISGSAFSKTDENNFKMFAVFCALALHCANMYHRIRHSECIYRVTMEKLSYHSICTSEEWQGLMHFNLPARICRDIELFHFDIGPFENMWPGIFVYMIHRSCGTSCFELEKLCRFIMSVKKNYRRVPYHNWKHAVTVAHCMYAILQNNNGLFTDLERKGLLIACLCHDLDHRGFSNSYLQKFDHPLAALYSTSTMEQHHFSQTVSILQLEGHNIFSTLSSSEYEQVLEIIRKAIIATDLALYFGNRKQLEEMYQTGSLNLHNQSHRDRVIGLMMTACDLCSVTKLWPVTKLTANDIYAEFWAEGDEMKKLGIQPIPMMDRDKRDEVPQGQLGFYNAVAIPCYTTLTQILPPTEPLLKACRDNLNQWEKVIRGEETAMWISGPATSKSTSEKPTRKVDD
Test: Inhibition of 6-His-tagged rat recombinant PDE10A expressed in Sf9 cells using [3H]cAMP incubated for 60 mins by scintillation proximity assay

pIC50: 5.26
Structure (SMILES): CCCCOc1ccc(Cl)c(-c2nnc3c(C)nc4ccncc4n23)c1
